# Measurements: US11382920B2, “Therapeutic effects of Guanabenz treatment in vanishing white matter” (Stichting VUmc, priority 2017, dated 2022)
# Tested on: ATF4 expression
# Test: Stress-sensitive ATF4 luciferase reporter transfection assay (pNL1.1-mATF4) in U373 cells
# Type: cell-based, human
# Conditions: 15 μM compound added with 3 nM thapsigargin for 16 hours
# Protocol: FIG. 9. […] ATF4 expression was assessed with a luciferase reporter construct under regulation of the murine Atf4 promoter and 5′ non-coding region. Cells were transfected as described. The ISR was induced by administration of 3 nM thapsigargin (TG) to the cell culture medium. 15 μM ISR modulators Gb, Sephin1 (S1, also a GADD34 inhibitor, but without α2 adrenergic effect) or ISRIB (I, an activator of eIF2B) were added simultaneously with or without TG for 16 hours (e.g. −TG/+Gb and +TG/+Gb). Guanfacin (Gf), an a2 adrenergic receptor agonist without reported GADD34 modulating activity, was included in parallel as negative control. Cell stress modulators Gb and S1 increase ATF4 expression in the presence of TG. This effect was not observed with Gf and was opposite in ISRIB. […]
# The a2 adrenergic receptor agonist Guanabenz (Gb) has been reported to also target GADD34 and thereby impact on a negative feedback loop of the ISR [16]. […] Expression from the reporter construct was measured 2 days after transfection with a commercially available chemiluminescent assay and can be directly interpreted as a measure for ATF4 expression.
# ATF4 expression was investigated in the absence or presence of ISR activation. The ISR was induced by addition of thapsigargin to the culture medium 16 hours before cells were harvested and ATF4 synthesis was measured. […]
smiles,measurement,value
NC(N)=N/N=C/c1ccccc1Cl [Sephin1],ATF4 expression under stress,increased
